ChEMBL document CHEMBL3352090, “Discovery of a Potent Analgesic NOP and Opioid Receptor Agonist: Cebranopadol” (2014)

Amino acid sequences for entries named in this document (tags omitted).
UniProt P35372, whole entry: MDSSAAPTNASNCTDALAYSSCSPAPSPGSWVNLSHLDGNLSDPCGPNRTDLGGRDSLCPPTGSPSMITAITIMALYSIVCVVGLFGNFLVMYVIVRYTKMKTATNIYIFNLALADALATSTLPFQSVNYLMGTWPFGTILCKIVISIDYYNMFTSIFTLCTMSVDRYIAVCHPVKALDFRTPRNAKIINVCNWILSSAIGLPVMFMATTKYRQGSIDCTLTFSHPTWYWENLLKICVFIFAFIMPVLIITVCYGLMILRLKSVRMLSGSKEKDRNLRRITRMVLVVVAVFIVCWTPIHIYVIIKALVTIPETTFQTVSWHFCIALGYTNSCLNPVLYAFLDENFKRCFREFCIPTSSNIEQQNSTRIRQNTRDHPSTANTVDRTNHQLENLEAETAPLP
UniProt P41146, whole entry: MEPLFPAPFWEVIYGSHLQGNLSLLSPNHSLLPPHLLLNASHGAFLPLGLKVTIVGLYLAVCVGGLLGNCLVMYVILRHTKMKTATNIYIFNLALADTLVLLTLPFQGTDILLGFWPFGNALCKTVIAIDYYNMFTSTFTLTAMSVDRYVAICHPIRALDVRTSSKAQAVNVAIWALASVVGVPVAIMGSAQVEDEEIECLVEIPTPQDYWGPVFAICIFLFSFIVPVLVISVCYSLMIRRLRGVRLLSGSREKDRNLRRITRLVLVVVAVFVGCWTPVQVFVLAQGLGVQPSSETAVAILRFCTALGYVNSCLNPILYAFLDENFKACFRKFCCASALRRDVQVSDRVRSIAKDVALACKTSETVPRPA

Tests used:
[1] = target: Mu-type opioid receptor (Homo sapiens) (UniProt P35372); test: Displacement of [3H]naloxone from human MOP receptor expressed in CHO-K1 cells at 1 uM by scintillation proximity assay
[2] = target: Nociceptin receptor (Homo sapiens) (UniProt P41146); test: Displacement of [3H]nociceptin from human NOP receptor expressed in CHO-K1 cells at 1 uM by scintillation proximity assay
[3] = target: Mu-type opioid receptor (Homo sapiens) (UniProt P35372); test: Agonist activity at human recombinant MOP receptor expressed in CHO-K1 cells assessed as stimulation of [35S]GTPgammaS binding by scintillation proximity assay relative to DAMGO
[4] = target: Nociceptin receptor (Homo sapiens) (UniProt P41146); test: Agonist activity at human recombinant NOP receptor expressed in CHO-K1 cells assessed as stimulation of [35S]GTPgammaS binding by scintillation proximity assay relative to nociceptin
Mus musculus [5] = test: Antinociceptive activity in iv dosed NMRI mouse assessed as increase in latency for tail withdrawal from radiant heat source by tail flick test
Mus musculus [6] = test: Antinociceptive activity in orally dosed NMRI mouse assessed as increase in latency for tail withdrawal from radiant heat source by tail flick test

SMILES | inhibition [1] | inhibition [2] | Efficacy [3] | Efficacy [4] | inhibition (Mus musculus [5]) | inhibition (Mus musculus [6])
CN1CCN([C@]2(c3ccccc3)CC[C@@]3(CC2)OCCc2c4ccccc4[nH]c23)CC1 | < 10% | < 10% | – | – | – | –
CN(C)[C@]1(c2ccccc2)CC[C@]2(CC1)OCCc1c3cc(O)ccc3[nH]c12 | – | – | 96% | 75% | – | –
CN[C@]1(c2ccccc2)CC[C@]2(CC1)OCCc1c3cc(F)ccc3[nH]c12 | – | – | 110% | 101% | Dose-dependent effect | Dose-dependent effect
CN(C)[C@]1(c2ccccc2)CC[C@]2(CC1)NCCc1c3ccccc3[nH]c12 | – | – | 101% | 108% | – | –
c1ccc([C@]2(N3CCCCC3)CC[C@]3(CC2)OCCc2c4ccccc4[nH]c23)cc1 | 43% | < 10% | – | – | – | –
c1ccc([C@]2(N3CCOCC3)CC[C@]3(CC2)OCCc2c4ccccc4[nH]c23)cc1 | < 10% | < 10% | – | – | – | –
